The text below walks through data of PubChem BioAssay AID588352 (The Scripps Research Institute Molecular Screening Center, 2011).

The chains behind the UniProt entries cited, without tags or fusion partners.
UniProt Q9Y6Q9, whole entry: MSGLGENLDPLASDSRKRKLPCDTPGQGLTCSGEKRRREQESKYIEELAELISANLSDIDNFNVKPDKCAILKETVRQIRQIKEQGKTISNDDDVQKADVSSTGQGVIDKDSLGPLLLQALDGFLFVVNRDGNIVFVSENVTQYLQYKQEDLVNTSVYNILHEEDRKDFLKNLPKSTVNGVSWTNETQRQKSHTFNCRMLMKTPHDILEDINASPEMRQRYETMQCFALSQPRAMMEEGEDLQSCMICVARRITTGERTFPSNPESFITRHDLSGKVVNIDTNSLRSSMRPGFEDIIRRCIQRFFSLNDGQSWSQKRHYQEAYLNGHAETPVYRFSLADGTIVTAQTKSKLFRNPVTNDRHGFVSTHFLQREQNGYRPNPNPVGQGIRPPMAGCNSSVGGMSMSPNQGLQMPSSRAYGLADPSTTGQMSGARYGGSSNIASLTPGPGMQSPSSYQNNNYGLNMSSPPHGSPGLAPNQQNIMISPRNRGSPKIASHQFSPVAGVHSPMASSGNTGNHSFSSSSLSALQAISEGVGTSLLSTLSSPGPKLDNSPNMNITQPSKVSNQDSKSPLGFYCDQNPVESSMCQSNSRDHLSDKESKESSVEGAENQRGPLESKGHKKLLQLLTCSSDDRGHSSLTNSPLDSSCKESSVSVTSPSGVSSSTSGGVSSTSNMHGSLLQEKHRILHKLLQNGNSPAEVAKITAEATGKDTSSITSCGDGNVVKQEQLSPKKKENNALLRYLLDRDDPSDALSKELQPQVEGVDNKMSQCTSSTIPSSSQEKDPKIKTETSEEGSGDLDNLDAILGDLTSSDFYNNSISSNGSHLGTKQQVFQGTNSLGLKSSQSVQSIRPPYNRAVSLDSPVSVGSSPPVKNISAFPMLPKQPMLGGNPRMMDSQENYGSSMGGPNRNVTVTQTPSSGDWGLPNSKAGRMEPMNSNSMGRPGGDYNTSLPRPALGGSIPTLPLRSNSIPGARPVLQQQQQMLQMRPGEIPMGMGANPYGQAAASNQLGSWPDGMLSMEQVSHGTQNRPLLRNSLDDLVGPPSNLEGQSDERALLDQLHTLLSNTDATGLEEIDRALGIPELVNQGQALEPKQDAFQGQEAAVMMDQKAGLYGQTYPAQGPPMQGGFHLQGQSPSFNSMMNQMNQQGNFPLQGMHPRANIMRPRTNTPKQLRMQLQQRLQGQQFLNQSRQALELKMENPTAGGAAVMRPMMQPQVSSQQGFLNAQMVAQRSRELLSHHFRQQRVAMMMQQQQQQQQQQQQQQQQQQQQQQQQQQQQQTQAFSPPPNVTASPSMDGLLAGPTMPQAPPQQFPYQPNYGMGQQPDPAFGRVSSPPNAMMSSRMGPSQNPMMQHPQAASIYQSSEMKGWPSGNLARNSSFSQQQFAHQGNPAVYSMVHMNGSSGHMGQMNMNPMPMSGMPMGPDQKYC

Only a part is listed here, and it is no random draw. Active and inactive are the calls of the source.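 How the source made its calls: active means inhibition above a per-campaign cutoff, the mean of all compounds plus 3 SD (cut at about 60% in these data); inactive means the rest.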

This assay deals with Nuclear receptor coactivator 3 (Homo sapiens) (UniProt Q9Y6Q9). Nature of the assay: SRC3 coactivator transcriptional activity inhibitors, primary screen, cell-based, luminescence (AID 588352).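 Further: 0% = DMSO-treated cells and 100% = gossypol-treated cells at 36 µM; higher means less SRC3-driven luciferase light from the GAL4 reporter.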 Conditions: HEK293 GAL4-SRC3 luciferase reporter, at 3.6 µM, hits give high values. A general note: A reporter such as luciferase makes a cellular process visible.
By inhibition is commonly meant the drop in the measured response relative to a control, in per cent. For `Cc1ccc(C(=O)NCC2(N(C)C)CCCCC2)o1`, the inhibition was inactive: -9.86%.
The value for `CCC(c1nnnn1C1CCCC1)N1CCC(n2c(=O)[nH]c3ccccc32)CC1` (stereo unspecified) was inactive: 2.66%.
On to `COc1ccc(C(=O)NCC2(N3CCCCC3)CCCCC2)c(OC)c1OC`, for which the inhibition is inactive: 7.38%.
As to `CC(C)(C)OC(=O)N1CCC(N(C(=O)c2ccccc2)c2ccc(F)cc2)CC1`, the inhibition was inactive: -11%.
For `COc1ccc(C(=O)NCC2(N3CCCCC3)CCCCC2)cc1`, the inhibition is inactive: -1.16%.
For `CCCCn1nnnc1C(c1cccs1)N1CCC(n2c(=O)[nH]c3ccccc32)CC1` (stereo unspecified), the inhibition was inactive: 23.9%.
In the case of `CCCCn1nnnc1C(CC)N1CCC(n2c(=O)[nH]c3ccccc32)CC1` (stereo unspecified), the inhibition is inactive: -23.4%.
With `O=C(NCC1(N2CCCCC2)CCCCC1)c1cccs1`, the inhibition was inactive: 15.4%.
Take `O=C(NCC1(N2CCCCC2)CCCCC1)c1ccc(=O)[nH]c1`: the inhibition was inactive: -32.7%.
Next, `Cc1cccc(NC2(C#N)CCN(Cc3ccccc3)CC2)c1`: inactive: -18.1%; `CSc1ccccc1C(=O)NCC1(N2CCCCC2)CCCCC1`: inactive: 0.17%.
Next, `Cc1cc(C)cc(N(C(=O)c2ccccc2)C2CCN(C(=O)OC(C)(C)C)CC2)c1`: inactive: 20.1%; `O=c1[nH]c2ccccc2n1C1CCN(C(c2ccccc2OC(F)(F)F)c2nnnn2C2CCCCC2)CC1` (stereo unspecified): inactive: 9.23%.
Next, `O=C(NCC1(N2CCCCC2)CCCCC1)c1ccc(Cl)nc1`: inactive: -3.86%.
Consider `O=C(NCC1(N2CCOCC2)CCCCC1)c1cc2ccccc2o1`, for which the inhibition is inactive: 2.62%.
`COc1ccc(Cl)cc1C(=O)NCC1(N2CCOCC2)CCCCC1`: the inhibition was inactive: -12.4%.
The value for `O=C(OC1CN2CCC1CC2)C1c2ccccc2Oc2ccccc21` (stereo unspecified) was inactive: 2.35%.
`O=c1[nH]c2ccccc2n1C1CCN(C(c2cc3ccccc3o2)c2nnnn2C2CCCCC2)CC1` (stereo unspecified): the inhibition is inactive: -1.97%.
Next, `O=C(NCC1(N2CCCCC2)CCCCC1)c1ccc(Cl)s1`: inactive: -1.52%; `N#CC1(Nc2ccccc2)CCN(Cc2ccccc2)CC1`: inactive: -2.94%; `CCCCn1nnnc1C(c1ccc(OC)cc1)N1CCC(n2c(=O)[nH]c3ccccc32)CC1` (stereo unspecified): inactive: 5.21%.
As to `CCOC(=O)N1CCC(Nc2ccc(OC)cc2)CC1`, the inhibition was inactive: 10.2%.
For the compound `O=C1CCN(Cc2ccccc2)CC1`, the inhibition was inactive: -3.35%.
Turning to `CC(C)(C)n1nnnc1C(c1ccccc1)N1CCC(n2c(=O)[nH]c3ccccc32)CC1` (stereo unspecified), the inhibition was inactive: -6.75%.
Regarding `CCOc1ccc(C)cc1CN(CCCl)CCCl`, the inhibition was inactive: 16.8%.
`COc1ccc(NC2CCN(CCc3ccccc3)CC2)c(OC)c1`: the inhibition was inactive: 20.1%.
On to `CCOC(=O)N1CCC(Nc2ccc(F)cc2)CC1`, for which the inhibition is inactive: 3.59%.
As for `O=C(NCC1(N2CCCCC2)CCCCC1)c1ccc(F)cc1`, the inhibition was inactive: 1.56%.
On to `CCCCn1nnnc1C(c1cc2ccccc2o1)N1CCC(n2c(=O)[nH]c3ccccc32)CC1` (stereo unspecified), for which the inhibition is inactive: 17.8%.
Take `O=P1(N(CCCl)CCCl)SCCCS1`: the inhibition is inactive: -11.3%.
Next, `CCCCOc1ccc(C(=O)NCC2(N3CCOCC3)CCCCC2)cc1`: inactive: 14.6%.
Take `O=c1[nH]c2ccccc2n1C1CCN(C(c2ccccc2)c2nnnn2C2CCCCC2)CC1` (stereo unspecified): the inhibition is inactive: 5.38%.
As for `COc1cc(C(=O)NCC2(N(C)C)CCCCC2)ccc1OC(F)F`, the inhibition is inactive: 0.85%.
Regarding `CCOC(=O)N1CCC(Nc2cccc(C)c2)CC1`, the inhibition was inactive: -2.23%.
Turning to `O=c1[nH]c2ccccc2n1C1CCN(C(c2cccc3ccccc23)c2nnnn2C2CCCC2)CC1` (stereo unspecified), the inhibition was inactive: 14.1%.
As to `CCC(c1nnnn1C1CCCCC1)N1CCC(n2c(=O)[nH]c3ccccc32)CC1` (stereo unspecified), the inhibition is inactive: 8.21%.
For `CC(=O)N(c1ccccc1)C1CCNCC1`, the inhibition was inactive: 4.78%.
As to `COc1cccc(C(c2nnnn2C2CCCCC2)N2CCC(n3c(=O)[nH]c4ccccc43)CC2)c1OC` (stereo unspecified), the inhibition was inactive: 6.62%.
As to `O=c1[nH]c2ccccc2n1C1CCN(C(c2ccnc3ccccc23)c2nnnn2C2CCCCC2)CC1` (stereo unspecified), the inhibition was inactive: 0.29%.
In the case of `COc1cc(OC)cc(C(=O)NCC2(N3CCCCC3)CCCCC2)c1`, the inhibition was inactive: 10.7%.
In the case of `Fc1ccccc1NC1CCN(Cc2ccccc2)CC1`, the inhibition is inactive: -9.95%.
`Cc1ccc(C(=O)NCC2(N3CCCCC3)CCCCC2)o1`: the inhibition is inactive: 11.9%.
In the case of `Cc1ccc(NC2(C#N)CCN(Cc3ccccc3)CC2)cc1`, the inhibition was inactive: -3.79%.
Consider `CC(C)(C)n1nnnc1C(c1ccnc2ccccc12)N1CCC(n2c(=O)[nH]c3ccccc32)CC1` (stereo unspecified), for which the inhibition was inactive: 23.5%.
As for `COc1ccc(C(c2nnnn2C2CCCCC2)N2CCC(n3c(=O)[nH]c4ccccc43)CC2)cc1` (stereo unspecified), the inhibition is inactive: 1.75%.
Take `CCN1CCC(Nc2cccc(F)c2)CC1`: the inhibition is inactive: 7.21%.
For the compound `Cc1ccccc1NC1(C#N)CCN(Cc2ccccc2)CC1`, the inhibition is inactive: -7.03%.
Next, `Cn1c(=O)[nH]cc(N(CCCl)CCCl)c1=O`: inactive: -10.6%.
Regarding `CN(C)c1ccc(C(=O)NCC2(N3CCCCC3)CCCCC2)cc1`, the inhibition was inactive: 2.3%.
For `O=C(NCC1(N2CCCCC2)CCCCC1)c1ccco1`, the inhibition is inactive: 9.98%.
For `CN1CCC(Nc2ccc(F)c(Cl)c2)CC1`, the inhibition is inactive: 5.14%.
On to `CCOc1ncccc1C(=O)NCC1(N2CCOCC2)CCCCC1`, for which the inhibition was inactive: 1.16%.
On to `O=C(O)C1(Nc2ccccc2)CCN(Cc2ccccc2)CC1`, for which the inhibition was inactive: -7.56%.
Consider `CC(C)(C)OC(=O)N1CCC(Nc2ccccc2)CC1`, for which the inhibition was inactive: 9.07%.
The value for `CCCOc1ccc(C(=O)NCC2(N(C)C)CCCCC2)cc1` was inactive: 19.7%; that for `O=c1[nH]c2ccccc2n1C1CCN(C(c2cc3ccccc3o2)c2nnnn2C2CCCC2)CC1` (stereo unspecified) was inactive: 3.6%; that for `COc1cc(OC)cc(C(=O)NCC2(N3CCOCC3)CCCCC2)c1` was inactive: -7.57%.
Take `COc1cccc(C(c2nnnn2C2CCCC2)N2CCC(n3c(=O)[nH]c4ccccc43)CC2)c1OC` (stereo unspecified): the inhibition was inactive: 12.6%.
Regarding `COc1cccc(C(=O)N(c2cc(C)cc(C)c2)C2CCN(C(=O)OC(C)(C)C)CC2)c1`, the inhibition was inactive: 14.2%.
Next, `CCC(CO)(C(=O)OC1CN2CCC1CC2)c1ccccc1` (stereo unspecified): inactive: 15.4%; `CN1CCC(Nc2ccc(Cl)cc2)CC1`: inactive: -8.94%; `COc1cc(C(=O)NCC2(N3CCOCC3)CCCCC2)cc(OC)c1C`: inactive: 16.8%.
`CCCCn1nnnc1C(c1ccccc1)N1CCC(n2c(=O)[nH]c3ccccc32)CC1` (stereo unspecified): the inhibition was inactive: 14.9%.
Consider `O=C(NCC1(N2CCOCC2)CCCCC1)c1cc(Br)ccc1Cl`, for which the inhibition was inactive: 21.1%.
For `O=c1[nH]c2ccccc2n1C1CCN(C(c2cccs2)c2nnnn2C2CCCCC2)CC1` (stereo unspecified), the inhibition was inactive: 1.17%.
For `O=c1[nH]c2ccccc2n1C1CCN(C(c2ccnc3ccccc23)c2nnnn2C2CCCC2)CC1` (stereo unspecified), the inhibition was inactive: -2.07%.
Turning to `COc1ccc(C(=O)NCC2(N3CCOCC3)CCCCC2)cc1OC`, the inhibition is inactive: -22.7%.
`COc1cccc(C(c2nnnn2C(C)(C)C)N2CCC(n3c(=O)[nH]c4ccccc43)CC2)c1OC` (stereo unspecified): the inhibition is inactive: 4.58%.
Next, `CCOC(=O)N1CCC(Nc2ccc(C)cc2)CC1`: inactive: -6.12%; `N/C(=N\O)c1c(N)no[n+]1[O-]`: inactive: 13.3%; `O=c1[nH]c2ccccc2n1C1CCN(C(c2cccs2)c2nnnn2C2CCCC2)CC1` (stereo unspecified): inactive: 7.83%.
The value for `O=C(OC1CN2CCC1CC2)C1c2ccccc2C=Cc2ccccc21` (stereo unspecified) was inactive: 13.9%; that for `CCCCn1nnnc1C(c1cccc(OC)c1OC)N1CCC(n2c(=O)[nH]c3ccccc32)CC1` (stereo unspecified) was inactive: 3.32%; that for `N#Cc1ccc(C(=O)NCC2(N3CCCCC3)CCCCC2)cc1` was inactive: 2.93%.
Take `CC(C)(C)OC(=O)N1CCC(N(C(=O)c2ccccc2)c2ccc(Cl)cc2)CC1`: the inhibition was inactive: -4.21%.
Regarding `CN(C)C1(CNC(=O)c2cccc(C#N)c2)CCCCC1`, the inhibition was inactive: 4.47%.
On to `CCCN1CCC(Nc2cc(OC)cc(OC)c2)CC1`, for which the inhibition is inactive: -22.7%.
For the compound `O=c1[nH]c2ccccc2n1C1CCN(C(c2ccccc2)c2nnnn2C2CCCC2)CC1` (stereo unspecified), the inhibition is inactive: -25.4%.
The value for `Cc1cc(N(CCCl)CCCl)ccc1C=O` was inactive: 0.64%; that for `c1ccc(CN2CCC(Nc3ccccc3)CC2)cc1` was inactive: -14.6%.
Turning to `CC(C)(C)n1nnnc1C(c1cccc2ccccc12)N1CCC(n2c(=O)[nH]c3ccccc32)CC1` (stereo unspecified), the inhibition was inactive: -2.54%.
